# Assay results reported in patent US20140038974A1, “Compositions and Methods for Eye Whitening” (Eye Therapies, LLC, priority 2009, published 2014).
# Assay: Log P (Table 1)
# Format: physicochemical
substance,measurement,value
guanfacine,Log P,1.00
